A short description of assay [1]: Selectivity ratio of IC50 for inhibition of HIS-tagged recombinant Trypanosoma cruzi TryR oxidoreductase activity expressed in Escherichia coli to IC50 for inhibition of HIS-tagged recombinant Leishmania infantum TryR oxidoreductase activity expressed in Escherichia coli.
Assay [2] can be described thus: Selectivity ratio of IC50 for inhibition of HIS-tagged recombinant Trypanosoma brucei TryR oxidoreductase activity expressed in Escherichia coli to IC50 for inhibition of HIS-tagged recombinant Leishmania infantum TryR oxidoreductase activity expressed in Escherichia coli.
Assay [3] deals with Trypanothione reductase (Leishmania infantum) (UniProt A4HSF7). The assay is described as follows: Disruption of HIS-FLAG-tagged recombinant Leishmania infantum TryR dimerization expressed in Escherichia coli Rossetta BL21 (DE3) cells at 75 uM incubated for 16 hrs by ELISA analysis relative to control.

In ChEMBL document CHEMBL5247635 (Eur J Med Chem, 2022) one finds Ratio IC50 and inhibition data, which are given here for two compounds.

Broadly, the inhibition is how much of the control response was suppressed. Take `C[n+]1nn(-c2ccc(-c3nc(CCc4ccc5ccccc5c4)cs3)c(OCCN3CCNC3=O)c2)cc1CCCCN.O=C(O)C(F)(F)F.O=S(=O)([O-])C(F)(F)F`: the figures for the Ratio IC50 in assay [1] and in assay [2] were 3 and 1.5, respectively. Moreover, the inhibition in assay [3] worked out at 29%.

On to `C[n+]1nn(-c2ccc(-c3nc(CCc4ccc(-c5ccccc5)cc4)cs3)c(OCCN3CCNC3=O)c2)cc1CCCCN.O=C(O)C(F)(F)F.O=S(=O)([O-])C(F)(F)F`, for which the results for the Ratio IC50 in assay [1] and in assay [2] were 3 and 1.5, respectively.
